Our source for the Normalized abundances for DMSO and Normalized abundances for compound values is ChEMBL document CHEMBL5058646 (2022).

In experiment [1] the target is T1, Zinc finger and BTB domain-containing protein 17 (Homo sapiens) (UniProt Q13105).
T1 sequence (whole entry): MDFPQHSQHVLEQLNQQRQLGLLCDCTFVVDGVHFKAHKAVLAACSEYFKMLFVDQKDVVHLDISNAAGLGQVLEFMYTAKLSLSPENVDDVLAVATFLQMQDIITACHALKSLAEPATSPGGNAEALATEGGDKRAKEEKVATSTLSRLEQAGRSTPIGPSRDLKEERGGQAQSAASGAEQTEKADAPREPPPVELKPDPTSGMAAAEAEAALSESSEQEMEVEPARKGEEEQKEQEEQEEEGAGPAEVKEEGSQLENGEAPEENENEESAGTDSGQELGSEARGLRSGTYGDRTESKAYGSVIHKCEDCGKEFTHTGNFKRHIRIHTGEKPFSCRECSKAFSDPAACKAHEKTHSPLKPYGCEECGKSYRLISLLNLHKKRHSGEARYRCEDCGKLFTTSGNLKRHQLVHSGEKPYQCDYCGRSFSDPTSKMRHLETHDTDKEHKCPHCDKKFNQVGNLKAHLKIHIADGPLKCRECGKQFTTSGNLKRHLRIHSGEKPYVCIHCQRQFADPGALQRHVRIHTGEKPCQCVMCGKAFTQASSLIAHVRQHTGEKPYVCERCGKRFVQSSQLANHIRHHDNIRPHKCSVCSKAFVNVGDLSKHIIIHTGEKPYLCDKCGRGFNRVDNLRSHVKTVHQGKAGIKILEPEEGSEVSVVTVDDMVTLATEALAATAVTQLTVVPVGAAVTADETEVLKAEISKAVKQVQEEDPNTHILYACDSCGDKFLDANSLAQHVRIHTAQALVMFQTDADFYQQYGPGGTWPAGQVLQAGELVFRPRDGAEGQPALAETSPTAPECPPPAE
Conditions: SUD4.

For experiment [2], the target named is T2, Zinc finger and BTB domain-containing protein 40 (Homo sapiens) (UniProt Q9NUA8).
T2 sequence (whole entry): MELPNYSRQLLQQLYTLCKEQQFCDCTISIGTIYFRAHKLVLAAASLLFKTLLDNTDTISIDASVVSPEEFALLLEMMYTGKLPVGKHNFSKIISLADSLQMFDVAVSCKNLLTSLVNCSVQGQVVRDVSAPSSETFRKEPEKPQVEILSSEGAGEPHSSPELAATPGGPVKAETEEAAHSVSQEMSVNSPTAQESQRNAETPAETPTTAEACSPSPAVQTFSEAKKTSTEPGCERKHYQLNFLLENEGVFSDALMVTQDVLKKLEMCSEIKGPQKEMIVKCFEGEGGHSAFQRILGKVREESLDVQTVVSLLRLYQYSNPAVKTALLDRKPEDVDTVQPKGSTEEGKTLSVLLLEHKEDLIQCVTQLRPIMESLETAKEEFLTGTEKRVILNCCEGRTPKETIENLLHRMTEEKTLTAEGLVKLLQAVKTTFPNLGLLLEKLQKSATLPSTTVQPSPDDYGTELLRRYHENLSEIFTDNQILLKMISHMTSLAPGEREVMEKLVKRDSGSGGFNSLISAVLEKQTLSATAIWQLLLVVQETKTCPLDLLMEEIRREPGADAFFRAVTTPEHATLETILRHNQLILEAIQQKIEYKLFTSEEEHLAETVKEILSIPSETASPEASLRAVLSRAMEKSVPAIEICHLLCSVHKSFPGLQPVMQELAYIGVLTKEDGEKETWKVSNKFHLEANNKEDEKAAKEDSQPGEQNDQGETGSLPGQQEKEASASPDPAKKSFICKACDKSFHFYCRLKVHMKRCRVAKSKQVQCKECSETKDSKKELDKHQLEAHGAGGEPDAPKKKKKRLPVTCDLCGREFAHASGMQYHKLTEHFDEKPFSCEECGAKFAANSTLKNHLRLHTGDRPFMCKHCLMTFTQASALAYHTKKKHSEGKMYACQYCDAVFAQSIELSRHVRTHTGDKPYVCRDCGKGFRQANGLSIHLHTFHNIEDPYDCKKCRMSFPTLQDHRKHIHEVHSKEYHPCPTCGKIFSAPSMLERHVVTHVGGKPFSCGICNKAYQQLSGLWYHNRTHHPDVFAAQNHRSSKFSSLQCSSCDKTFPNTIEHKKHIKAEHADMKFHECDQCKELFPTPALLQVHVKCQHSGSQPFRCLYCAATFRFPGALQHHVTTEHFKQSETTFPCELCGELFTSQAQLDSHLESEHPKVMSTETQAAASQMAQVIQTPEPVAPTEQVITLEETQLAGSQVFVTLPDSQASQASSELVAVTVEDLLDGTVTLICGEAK
Conditions: OCI-Ly1.

For experiment [3], the target named is T3, Zinc finger and BTB domain-containing protein 10 (Homo sapiens) (UniProt Q96DT7).
T3 sequence (whole entry): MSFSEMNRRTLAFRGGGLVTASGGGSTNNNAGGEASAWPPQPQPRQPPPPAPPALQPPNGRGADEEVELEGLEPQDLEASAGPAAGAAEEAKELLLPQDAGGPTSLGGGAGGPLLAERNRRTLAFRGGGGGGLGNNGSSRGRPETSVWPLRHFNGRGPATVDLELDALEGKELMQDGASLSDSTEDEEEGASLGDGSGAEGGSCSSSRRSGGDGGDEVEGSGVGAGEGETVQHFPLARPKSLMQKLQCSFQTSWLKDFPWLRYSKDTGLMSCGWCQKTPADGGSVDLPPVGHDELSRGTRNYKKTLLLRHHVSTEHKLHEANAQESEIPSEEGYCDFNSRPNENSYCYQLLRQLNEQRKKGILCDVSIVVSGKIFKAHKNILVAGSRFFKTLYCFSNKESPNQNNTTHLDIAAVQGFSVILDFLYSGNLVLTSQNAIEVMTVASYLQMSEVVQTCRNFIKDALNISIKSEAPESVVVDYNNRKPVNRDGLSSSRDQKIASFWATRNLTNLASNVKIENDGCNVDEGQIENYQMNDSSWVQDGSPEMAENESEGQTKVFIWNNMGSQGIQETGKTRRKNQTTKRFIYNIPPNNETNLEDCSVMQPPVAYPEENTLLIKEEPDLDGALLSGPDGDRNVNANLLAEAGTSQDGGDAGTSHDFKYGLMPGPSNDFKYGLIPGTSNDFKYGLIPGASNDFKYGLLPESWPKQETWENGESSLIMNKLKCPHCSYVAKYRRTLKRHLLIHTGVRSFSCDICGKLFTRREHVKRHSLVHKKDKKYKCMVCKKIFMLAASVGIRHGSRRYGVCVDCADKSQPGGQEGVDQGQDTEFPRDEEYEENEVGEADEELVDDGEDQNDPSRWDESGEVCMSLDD
Conditions: SUD4.

In experiment [4] the target is T2, Zinc finger and BTB domain-containing protein 40 (Homo sapiens). Conditions: SUD4.

With `C[C@@H]1CN(c2ncc(Cl)c(Nc3ccc4c(c3)n(CCC(C)(C)O)c(=O)n4C)n2)C[C@H](C)C1(F)F`, the Normalized abundances for DMSO was found to be 273 in experiment [1], 94.7 in experiment [2], 3600 in experiment [3] and 1290 in experiment [4]. Also, the Normalized abundances for compound in experiment [1] is 264; in experiment [2], 82.8; in experiment [3], 3670; in experiment [4], 1290.
